This is an account of results in US4479951A, “1.4;3.6-Dianhydrohexitol nitrates substituted by purine bases, processes for their preparation and pharmaceutical compositions” (Dr. Willmar Schwabe GmbH & Co., priority 1980, dated 1984).

This experiment relates to mongrel cats. The experiment can be described thus: heart-circulation effectiveness on narcotised mongrel cats, intraduodenal administration. The conditions noted are these: 5 mg/kg intraduodenal.

For the compound `O=[N+]([O-])O[C@H]1CO[C@H]2[C@@H]1OC[C@H]2O[N+](=O)[O-]`, the dp/dt by setting is: (0 min) 8800 ± 831 mm sec; (10 min) 8000 ± 1097 mm sec; (30 min) 7667 ± 807 mm sec; (60 min) 7633 ± 743 mm sec; (120 min) 7050 ± 661 mm sec. Besides, the heart frequency (120 min) turned out to be 167.7 ± 9.4 min⁻¹. For the same compound, the “blood pressure Δ” value was -13.9 mm. Hg (printed on the 0 min line (= change 0 to 10 min)), -13.1 mm. Hg (printed on the 10 min line (= change 0 to 30 min)), -10.1 mm. Hg (printed on the 30 min line (= change 0 to 60 min)) and -9.3 mm. Hg (printed on the 60 min line (= change 0 to 120 min)).
